US11554103B2, “Compositions and methods to reduce pharmaceutical-induced toxicity” (priority 2016, dated 2023)
Entries after “also recorded” stand apart in the source; their conditions may differ.

Tests used:
[1] = system: substantia nigra pars compacta dopaminergic neurons; assay: Ex vivo brain slice mitochondrial oxidant stress, mito-roGFP probe, two photon microscopy; type: cell-based, mouse; details: for somatic mitochondrial stress / mitochondrial stress at dopamine release sites: 10 μM methamphetamine or 100 μM levodopa; for mitochondrial stress at dopamine release sites: Example 1
Method: Animals and treatment paradigms: Male C57/B16 and TH-mitoroGFP (Guzman et al., 2010 Nature p. 696; incorporated by reference in its entirety) mice 5-8 wks of age were used for all imaging studies. In addition to the TH-mitoroGFP transgenic line, roGFP was virally delivered into the SNc of C57/B16 mice (either targeting cytosolic or mitochondrial compartments).
Two photon microscopy: Ex vivo slices of the dorsolateral striatum or SNc were prepared and redox status determined as previously described (Guzman et al., 2010 Nature p. 696; incorporated by reference in its entirety). […] The dynamic range of the probe was determined by perfusing 2 mM dithiothreitol (DTT) to fully reduce the probe and 200 μM aldrithiol to fully oxidize the probe; data presented as % relative oxidation.
(§1) Stereotaxic surgery: PCR amplified roGFP, mitoroGFP and IMSroGFP inserts were subcloned into pFB-TH-SV40pA vector between EcoR1 and SalI sites. After sequence and expression verification, pFB-TH-roGFP vectors were packaged into rAAVs using serotype 9 with titers 2.1-×10^13 viral genome copies/ml (Virovek). Mice were anesthetized using an isoflurane precision vaporizer (Smiths Medical PM) and placed in a stereotaxic frame (David Kopf Instruments) with a Cunningham adaptor (Harvard Apparatus) to maintain anesthesia delivery throughout surgery. After exposing the skull, a small hole was drilled and 350 nL of AAV9-TH-cytosolic roGFP or AAV9-TH-mitoroGFP delivered via a glass micropipette (Drummond Scientific Company) pulled on a Sutter P-97 puller. The substantia nigra pars compacta (SNc) was targeted at the following coordinates: AP: −3.05, ML: 1.20, and DV −4.30. All surgeries were performed in wild-type mice. Experiments in animals with stereotaxic delivery of AAV viral vectors were performed after at least 10 days post-op.
Ex vivo slice preparation: Mice were terminally anesthetized with a mixture of ketamine (50 mg/kg)/xylazine (4.5 mg/kg) and transcardially perfused with ice cold modified artificial cerebrospinal fluid (aCSF) containing in mM: 124.0 NaCl, 3.0 KCl, 1.0 CaCl2, 2.0 MgCl2, 26 NaHCO3, 1.0 NaH2PO4, and 16.66 glucose. Once perfused the brain was rapidly removed and either saggital or coronal slices containing the dorsolateral striatum (275 μm thick) or the SNc (220 μm thick) sectioned using a vibratome (VT1200S Leica Microsystems). Slices were transferred to a holding chamber containing normal aCSF containing in mM: 124.0 NaCl, 3.0 KCl, 2.0 CaCl2, 1.0 MgCl2, 26 NaHCO3, 1.0 NaH2PO4, and 16.66 glucose and allowed at least 30-40 minutes to recover prior to experiments. All solutions were pH 7.4, 310-320 mOsm and continually bubbled with 95% O2/5% CO2.
(§2) Ex vivo redox measurements and two photon microscopy: Oxidant stress was assessed using the redox sensitive roGFP probe targeted either to the cytosol or mitochondrial matrix as previously described.^10 Slices were transferred to a recording chamber and continuously perfused with normal aCSF at 32-34° C. Fluorescence was measured using an Ultima Laser Scanning Microscope system (Bruker) with a DODT contrast detector to provide bright-field transmission images with an Olympus 60/0.9NA lens. A two-photon laser (Chameleon Ultra II, Coherent Inc.) tuned to 920 nm was used to excite roGFP. Time series image acquisitions of the roGFP probe were obtained with 60 frames obtained over ˜20 seconds with 0.195 μm×0.195 μm pixels and 10-12 μsec dwell times.

[2] = system: human iPSC-derived dopamine neurons; assay: Mitochondrial membrane potential measured by TMRM; type: cell-based; details: levodopa after inhibition of complex III (myxothiazol) and ANT (carboxyatractyloside)
Method: To monitor changes in mitochondria membrane potential, dopaminergic neurons were loaded with 20 nM TMRM for 45 min, washed, and maintained in 2 nM TMRM during imaging. Cells were exposed at 550 nm for 50 ms, and time-lapse images were captured every 30 sec. After imaging approximately 15 min to establish stable baselines, complex III inhibitor myxothiazol (2 μM) and adenine nucleotide translocase inhibitor carboxyatractyloside (1 μM) were added to perfusion buffer for the remainder of the imaging. Thirty minutes later, cells were treated with 100 μM levodopa and imaging continued for an additional 30 min; to test MAO inhibition, 10 μM rasagiline/5 μM clorgyline were added 30 min prior to 100 μM levodopa. Regions of interest with stable baseline fluorescence (less than 15% variation) were individually fit with centered, second order polynomial regressions (average r^2>0.90 in all experiments), using data from the thirty minutes following complex III/ANT inhibition (prior to levodopa administration). The mitochondrial polarization index was calculated by dividing observed data by modeled data; deviation of polarization indices from 1.0 indicated deviation from decay trajectory.

[3] = system: substantia nigra pars compacta dopaminergic neurons; assay: Ex vivo brain slice cytosolic oxidant stress, cyto-roGFP probe, two photon microscopy; type: cell-based, mouse; details: for axonal cytosolic stress / cytosolic stress in distal dendrites / somatic cytosolic stress / dendritic cytosolic stress with monoamine oxidase-B inhibited / terminal cytosolic stress with monoamine oxidase-B inhibited: 10 μM methamphetamine or 100 μM levodopa; for dendritic cytosolic stress with monoamine oxidase-B inhibited / terminal cytosolic stress with monoamine oxidase-B inhibited: with 10 μM rasagiline; for cytosolic stress under conditions of monoamine oxidase-B inhibition: Example 1 summary; for cytosolic oxidant stress: cell bodies, dendrites, striatal axons, methamphetamine 10 μM, levodopa 100 μM
Method: Animals and treatment paradigms: Male C57/B16 and TH-mitoroGFP (Guzman et al., 2010 Nature p. 696; incorporated by reference in its entirety) mice 5-8 wks of age were used for all imaging studies. In addition to the TH-mitoroGFP transgenic line, roGFP was virally delivered into the SNc of C57/B16 mice (either targeting cytosolic or mitochondrial compartments). For dopamine depletion experiments, mice were administered 5 mg/kg reserpine for 5 consecutive days and sacrificed on the 5th day (Day et al., 2006 Nat Neurosci p. 251; incorporated by reference in its entirety). For stereological investigations, mice were administered saline, 5 mg/kg methamphetamine, or 5 mg/kg methamphetamine with a 30 min pretreatment of 1 mg/kg rasagiline for 14 consecutive days and sacrificed after 14 days withdrawal.
Two photon microscopy: Ex vivo slices of the dorsolateral striatum or SNc were prepared and redox status determined as previously described (Guzman et al., 2010 Nature p. 696; incorporated by reference in its entirety). Oxidant stress was measured in control slices, with bath application of 10 μM methamphetamine or preincubated with 100 μM levodopa. The dynamic range of the probe was determined by perfusing 2 mM dithiothreitol (DTT) to fully reduce the probe and 200 μM aldrithiol to fully oxidize the probe; data presented as % relative oxidation.
as §1
Once perfused the brain was rapidly removed and either saggital or coronal slices containing the dorsolateral striatum (275 μm thick) or the SNc (220 μm thick) sectioned using a vibratome (VT1200S Leica Microsystems). Slices were transferred to a holding chamber containing normal aCSF containing in mM: 124.0 NaCl, 3.0 KCl, 2.0 CaCl2, 1.0 MgCl2, 26 NaHCO3, 1.0 NaH2PO4, and 16.66 glucose and allowed at least 30-40 minutes to recover prior to experiments. All solutions were pH 7.4, 310-320 mOsm and continually bubbled with 95% O2/5% CO2.
as §2, with “times. The dynamic range of the probe was determined with 2 mM dithiothreitol, a reducing agent, and 200 μM aldrithiol, an oxidizing agent, which were sequentially perfused and t-series acquired with each to determine the maximal and minimal fluorescence intensity. […]” for “times.”

[4] = 10 μM drug alone, relative to control (aCSF), dorsolateral striatum slices
[5] = mice lacking both MAO-A and MAO-B, methamphetamine 10 μM, levodopa 100 μM

Row | Structure (SMILES) | axonal (terminal) mitochondrial stress [1, 4] | somatic mitochondrial stress [1] | mitochondrial stress at dopamine release sites [1] | axonal mitochondrial stress [1, 5] | axonal cytosolic stress [3] | cytosolic stress in distal dendrites [3] | somatic cytosolic stress [3] | dendritic cytosolic stress with monoamine oxidase-B inhibited [3] | terminal cytosolic stress with monoamine oxidase-B inhibited [3] | cytosolic stress under conditions of monoamine oxidase-B inhibition [3] | cytosolic oxidant stress [3] | also measured
1 | C[C@H](N)Cc1ccccc1 [d-amphetamine, dextroamphetamine] | increased mitochondrial oxidant stress in SNc DA axons in a MAO-dependent manner; also recorded: increased axonal mitochondrial stress |  |  |  |  |  |  |  |  |  |  | 
2 | N[C@@H](Cc1ccc(O)c(O)c1)C(=O)O [levodopa, L-3,4-dihydroxyphenylalanine] |  | neither drug had any effect on somatic mitochondrial redox status; also recorded: unchanged | selectively increased mitochondrial stress at dopamine release sites | Neither methamphetamine nor levodopa increased axonal mitochondrial oxidant stress; also recorded: neither +methA (10 μM) or +1-dopa (100 μM) had any effect | had no effect on cytosolic stress | had no effect on cytosolic stress | unaffected; also recorded: unaltered | only increased by meth and levodopa when monoamine oxidase-B was inhibited | only increased by meth and levodopa when monoamine oxidase-B was inhibited | increased | unaffected; also recorded: had no effect on cytosolic oxidant stress | dendritic mitochondrial stress ([1]; 100 μM levodopa alone): increased; axonal (terminal) mitochondrial stress ([1]; 100 μM levodopa alone, relative to control): significantly increased mitochondrial oxidant stress selectively in axons; also recorded: increased axonal mitochondrial stress; TMRM fluorescence decay / polarization index [2]: consistently slowed the decline in TMRM fluorescence; also recorded: caused a significant deviation; also recorded: trajectory of the decay was changed
3 | CNC(C)Cc1ccccc1 (centres unmarked) [methamphetamine, N-methylamphetamine] | significantly increased mitochondrial oxidant stress selectively in axons; also recorded: increased axonal mitochondrial stress | neither drug had any effect on somatic mitochondrial redox status; also recorded: unchanged | selectively increased mitochondrial stress at dopamine release sites | Neither methamphetamine nor levodopa increased axonal mitochondrial oxidant stress; also recorded: neither +methA (10 μM) or +1-dopa (100 μM) had any effect | had no effect on cytosolic stress | had no effect on cytosolic stress | unaffected; also recorded: unaltered | only increased by meth and levodopa when monoamine oxidase-B was inhibited | only increased by meth and levodopa when monoamine oxidase-B was inhibited | increased | unaffected; also recorded: failed to increase cytosolic oxidant stress | axonal mitochondrial stress ([1]; 1 μM methamphetamine alone, relative to control): had no measurable effect on mitochondrial redox status; also recorded: not significantly altered; axonal mitochondrial stress ([1]; 1 μM methamphetamine combined with 15 mM KCl): significant elevation in mitochondrial oxidant stress; also recorded: increased by the combination of +methA and +KCl; dendritic mitochondrial stress ([1]; 10 μM methamphetamine alone): increased; axonal (terminal) mitochondrial stress ([1]; 10 μM methamphetamine, slices from reserpinized mice): had no effect on terminal mitochondrial stress; also recorded: had no effect on axonal mitochondrial stress
4 | COC(=O)C(c1ccccc1)C1CCCCN1 (centres unmarked) [methylphenidate] |  |  |  |  |  |  |  |  |  |  |  | axonal mitochondrial stress ([1]; 5 μM drug alone, relative to control): had no effect; axonal mitochondrial stress ([1]; 5 μM drug alone, relative to control, listed as methyphenidate): had no effect on mitochondrial oxidant stress
5 | COC(=O)[C@H]1[C@H]2C[C@@H]3c4[nH]c5cc(OC)ccc5c4CCN3C[C@H]2C[C@@H](OC(=O)c2cc(OC)c(OC)c(OC)c2)[C@@H]1OC [reserpine] |  |  |  |  |  |  |  |  |  |  |  | effect of reserpine pretreatment on the mitochondrial redox effects of methamphetamine ([1]; mice pretreated with reserpine (5 mg/kg, five days), depletion of vesicular DA): eliminated the mitochondrial redox effects of methamphetamine
